Blank lines part the entries; values can stand above or below the compound they belong to.
Key:
[1] = molecular target: T1, Prolyl endopeptidase (Homo sapiens) (UniProt P48147); assay: Inhibition of prolyl oligopeptidase assessed as fractional activity at 0.0005 uM
T1 sequence (whole entry): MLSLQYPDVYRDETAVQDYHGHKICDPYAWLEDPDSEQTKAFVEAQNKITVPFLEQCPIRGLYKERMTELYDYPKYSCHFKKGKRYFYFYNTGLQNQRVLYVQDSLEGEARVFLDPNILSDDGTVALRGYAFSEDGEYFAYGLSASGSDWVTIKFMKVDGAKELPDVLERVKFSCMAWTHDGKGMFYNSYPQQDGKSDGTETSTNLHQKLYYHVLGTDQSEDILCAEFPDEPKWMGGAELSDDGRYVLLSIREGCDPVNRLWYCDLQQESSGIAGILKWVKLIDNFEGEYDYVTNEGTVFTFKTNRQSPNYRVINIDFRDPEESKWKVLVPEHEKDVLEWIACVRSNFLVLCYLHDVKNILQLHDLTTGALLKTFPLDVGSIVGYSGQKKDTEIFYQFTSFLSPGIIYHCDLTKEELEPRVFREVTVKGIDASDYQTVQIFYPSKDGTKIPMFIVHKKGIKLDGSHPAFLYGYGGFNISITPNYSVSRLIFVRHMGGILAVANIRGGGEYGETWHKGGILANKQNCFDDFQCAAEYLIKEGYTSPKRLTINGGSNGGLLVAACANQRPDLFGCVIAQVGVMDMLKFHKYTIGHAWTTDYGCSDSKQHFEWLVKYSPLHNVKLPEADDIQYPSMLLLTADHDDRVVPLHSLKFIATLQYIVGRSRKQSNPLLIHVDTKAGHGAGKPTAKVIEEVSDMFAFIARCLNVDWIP

[2] = molecular target: T1, Prolyl endopeptidase (Homo sapiens); assay: Inhibition of prolyl oligopeptidase assessed as fractional activity at 0.0025 uM
[3] = molecular target: T1, Prolyl endopeptidase (Homo sapiens); assay: Inhibition of prolyl oligopeptidase assessed as fractional activity at 0.0075 uM
[4] = molecular target: T1, Prolyl endopeptidase (Homo sapiens); assay: Inhibition of prolyl oligopeptidase assessed as fractional activity at 0.010 uM
[5] = molecular target: T1, Prolyl endopeptidase (Homo sapiens); assay: Inhibition of prolyl oligopeptidase assessed as fractional activity at 0.025 uM
[6] = molecular target: T1, Prolyl endopeptidase (Homo sapiens); assay: Inhibition of prolyl oligopeptidase assessed as fractional activity at 0.050 uM
[7] = molecular target: T1, Prolyl endopeptidase (Homo sapiens); assay: Inhibition of prolyl oligopeptidase assessed as fractional activity at 0.075 uM
[8] = molecular target: T1, Prolyl endopeptidase (Homo sapiens); assay: Inhibition of prolyl oligopeptidase assessed as fractional activity at 0.085 uM
[9] = molecular target: T1, Prolyl endopeptidase (Homo sapiens); assay: Inhibition of prolyl oligopeptidase assessed as fractional activity at 0.1 uM
[10] = molecular target: T1, Prolyl endopeptidase (Homo sapiens); assay: Inhibition of prolyl oligopeptidase assessed as fractional activity at 2.5 uM
[11] = molecular target: T1, Prolyl endopeptidase (Homo sapiens); assay: Inhibition of prolyl oligopeptidase assessed as fractional activity at 5 uM
[12] = molecular target: T1, Prolyl endopeptidase (Homo sapiens); assay: Inhibition of prolyl oligopeptidase assessed as fractional activity at 10 uM
[13] = molecular target: T1, Prolyl endopeptidase (Homo sapiens); assay: Inhibition of prolyl oligopeptidase assessed as fractional activity at 0.0001 uM
[14] = molecular target: T1, Prolyl endopeptidase (Homo sapiens); assay: Inhibition of prolyl oligopeptidase assessed as fractional activity at 0.0010 uM
[15] = molecular target: T1, Prolyl endopeptidase (Homo sapiens); assay: Inhibition of prolyl oligopeptidase assessed as fractional activity at 0.0050 uM
[16] = molecular target: T1, Prolyl endopeptidase (Homo sapiens); assay: Inhibition of prolyl oligopeptidase assessed as fractional activity at 1 uM
[17] = molecular target: T1, Prolyl endopeptidase (Homo sapiens); assay: Inhibition of prolyl oligopeptidase assessed as fractional activity at 2 uM
[18] = molecular target: T1, Prolyl endopeptidase (Homo sapiens); assay: Inhibition of prolyl oligopeptidase assessed as fractional activity at 3 uM
[19] = molecular target: T1, Prolyl endopeptidase (Homo sapiens); assay: Inhibition of prolyl oligopeptidase assessed as fractional activity at 4 uM
[20] = molecular target: T1, Prolyl endopeptidase (Homo sapiens); assay: Inhibition of prolyl oligopeptidase assessed as fractional activity at 15 uM
[21] = molecular target: T1, Prolyl endopeptidase (Homo sapiens); assay: Inhibition of prolyl oligopeptidase assessed as fractional activity at 20 uM
[22] = molecular target: T1, Prolyl endopeptidase (Homo sapiens); assay: Inhibition of prolyl oligopeptidase assessed as fractional activity at 25 uM
[23] = molecular target: T1, Prolyl endopeptidase (Homo sapiens); assay: Inhibition of prolyl oligopeptidase assessed as fractional activity at 50 uM
[24] = molecular target: T1, Prolyl endopeptidase (Homo sapiens); assay: Inhibition of prolyl oligopeptidase assessed as fractional activity at 75 uM
[25] = molecular target: T1, Prolyl endopeptidase (Homo sapiens); assay: Inhibition of prolyl oligopeptidase assessed as fractional activity at 100 uM

Structure (SMILES): Nc1ccc([N+](=O)[O-])cc1
- Activity [1]: 0.984
- Activity [2]: 0.95
- Activity [3]: 0.924
- Activity [4]: 0.748
- Activity [5]: 0.481
- Activity [6]: 0.39
- Activity [7]: 0.189
- Activity [8]: 0.127
- Activity [9]: 0.0216
- Activity [10]: 0.016
- Activity [11]: 0.00978
- Activity [12]: 0
- Activity [13]: 0.99
- Activity [14]: 0.896
- Activity [15]: 1.02

- Activity [16]: 0
- Activity [17]: 0.0417
- Activity [18]: 0.0417
- Activity [19]: 0.0694
- Activity [11]: 0.181
- Activity [12]: 0.208
- Activity [20]: 0.361
- Activity [21]: 0.333
- Activity [22]: 0.514
- Activity [23]: 0.722
- Activity [24]: 1
- Activity [25]: 0.997
Structure (SMILES): O=C(NCC(=O)N1CCC[C@H]1C(=O)Nc1ccc([N+](=O)[O-])cc1)OCc1ccccc1

Reference: ChEMBL document CHEMBL1177646, “Inhibition of prolyl oligopeptidase with a synthetic unnatural dipeptide” (Bioorg Med Chem, 2010)
